In publication PMC10901892 (Scientific Reports, 2024):

Experiments:
[1] = tested on: isolated mouse liver mitochondria; conditions: succinate and oligomycin A, nonlinear fit in GraphPad Prism

O=[N+]([O-])c1cccc([N+](=O)[O-])c1O
EC50, fold stimulation of oxygen consumption [1]: 136 µM
drug tissue concentration, heart (male C57BL/6 mice, 5 mg/kg, two hours): BLQ
health of animals during the study (mice, 5 mg/kg): healthy throughout the study duration
tissue concentrations (in words) (mice, 5 mg/kg intraperitoneally): highest concentrations found in the spleen and lung
